## scFv variants of Ab-14 (heavy chain) against a SARS-CoV-2 spike peptide

The measurements come from Engelhart et al. 2022 (doi:10.1038/s41597-022-01779-4) through the FLAb antibody collection.

Target peptide (SARS-CoV-2 spike, HR2 region): PDVDLGDISGINAS

The variants keep the light chain, the linker and the frameworks of Ab-14 (scFv order VH, the linker GGGGSGGGGSGGGGS, VL).
VH: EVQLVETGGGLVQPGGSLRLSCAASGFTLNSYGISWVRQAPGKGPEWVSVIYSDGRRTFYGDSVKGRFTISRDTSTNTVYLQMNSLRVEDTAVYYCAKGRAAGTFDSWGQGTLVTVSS
VL: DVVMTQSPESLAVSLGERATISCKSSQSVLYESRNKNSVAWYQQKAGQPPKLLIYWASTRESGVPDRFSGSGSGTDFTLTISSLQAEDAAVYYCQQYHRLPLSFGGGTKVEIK

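The starting antibody came from a phage panning campaign against this peptide. Variants in AAYL49 differ from the parent at up to three CDR positions; double and triple changes were sampled at random. In AlphaSeq, yeast of one mating type display the scFv and yeast of the other type display the target. Pairs that bind mate more often; barcode pairs of the diploids are counted by sequencing. Each replicate has its own calibration line, from reference interactions of the BCL2 family. There are three technical replicates.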

Changes read parent residue, position, new residue, counted from the first residue of the VH shown.
This list gathers variants with a substitution at Y60 (VH, numbered from residue 1).
Numbers give log10(Kd / nM), so 0 is 1 nM and 3 is 1 µM. Smaller is tighter.
Replicates are averaged; those with no signal do not enter the mean.
An entry "ND" has no value in the source: the pair was not observed among the diploids in that replicate. This suggests poor binding but is not conclusive.
Entries are sorted by rising average, undetected variants last.
In this assay the parent's reference entry averaged 0.65; its copy inside this library read 4.11 (one replicate of three).
Three control strains display no target. For library AAYL49, 15% of the pairings with them gave a signal, with a median of 4.06 and one signal in twenty below 2.83, so weak values seen in few replicates may be background. For each scFv, signals with the empty controls are counted beside the result, with their mean in brackets.

changes,"log10 Kd, replicates","mean, log10 nM",empty controls
N30W/V50F/Y60R,ND / 3.34 / ND,3.34,0 of 9
L29V/Y60P,3.61 / ND / ND,3.61,1 of 9 (3.99)
Y60M/R100M/T104C,3.39 / 4.10 / ND,3.75,0 of 9
F59Q/Y60A/F105D,3.49 / ND / 4.97,4.23,0 of 9
Y60D/S63R/K65Y,ND / ND / 4.25,4.25,2 of 9 (3.80)
S31D/Y32S/Y60I,3.41 / 4.03 / 5.45,4.30,4 of 9 (4.34)
N30A/Y60W/F105C,4.45 / ND / ND,4.45,3 of 9 (4.91)
T28K/Y60S/S63P,ND / ND / 4.52,4.52,2 of 9 (4.08)
Y60K/D62P/S107N,4.71 / ND / ND,4.71,0 of 9
S31R/Y60N/F105V,ND / 5.23 / 4.44,4.84,2 of 9 (3.75)
I34S/R57P/Y60N,ND / 4.86 / ND,4.86,1 of 9 (3.55)
R57H/Y60M/G99Y,ND / 4.93 / ND,4.93,1 of 9 (4.18)
S35W/R56Q/Y60L,ND / ND / 5.05,5.05,0 of 9
F27L/Y60S/S107I,ND / ND / 5.54,5.54,2 of 9 (4.45)
Y60T/K65Y,5.99 / ND / ND,5.99,1 of 9 (3.88)
Y60C/K65V/T104R,ND / ND / ND,ND,1 of 9 (3.06)
F27I/Y60F/T104W,ND / ND / ND,ND,0 of 9
L29D/Y60N/S63H,ND / ND / ND,ND,3 of 9 (4.41)
L29D/S35T/Y60A,ND / ND / ND,ND,0 of 9
Y32K/Y60N/D106T,ND / ND / ND,ND,0 of 9
F27T/Y60Q/R100L,ND / ND / ND,ND,0 of 9
Y60K/G61F/D106Q,ND / ND / ND,ND,0 of 9
I51P/Y52W/Y60M,ND / ND / ND,ND,0 of 9
V50S/Y60Q/D106Q,ND / ND / ND,ND,0 of 9
I34G/Y60L,ND / ND / ND,ND,2 of 9 (3.48)
Y60M/S63F/R100A,ND / ND / ND,ND,1 of 9 (4.12)
N30K/Y60H/A102N,ND / ND / ND,ND,0 of 9
V50C/Y60Q,ND / ND / ND,ND,0 of 9
Y60R/T104H,ND / ND / ND,ND,0 of 9
L29C/D54E/Y60P,ND / ND / ND,ND,1 of 9 (4.11)
S31G/Y60M/R100M,ND / ND / ND,ND,1 of 9 (3.87)
N30L/Y60W/G61E,ND / ND / ND,ND,0 of 9

The first 5 variants above that were never detected:

| changes | log10 Kd, replicates | mean, log10 nM | empty controls |
|---|---|---|---|
| Y60C/K65V/T104R | ND / ND / ND | ND | 1 of 9 (3.06) |
| F27I/Y60F/T104W | ND / ND / ND | ND | 0 of 9 |
| L29D/Y60N/S63H | ND / ND / ND | ND | 3 of 9 (4.41) |
| L29D/S35T/Y60A | ND / ND / ND | ND | 0 of 9 |
| Y32K/Y60N/D106T | ND / ND / ND | ND | 0 of 9 |